Experimental data taken from article PMC6270864, “Identification of Two Novel α1-AR Agonists Using a High-Throughput Screening Model” (Molecules, 2014).

Amino acid sequences for entries named in this document (tags omitted).
UniProt P25100, whole entry: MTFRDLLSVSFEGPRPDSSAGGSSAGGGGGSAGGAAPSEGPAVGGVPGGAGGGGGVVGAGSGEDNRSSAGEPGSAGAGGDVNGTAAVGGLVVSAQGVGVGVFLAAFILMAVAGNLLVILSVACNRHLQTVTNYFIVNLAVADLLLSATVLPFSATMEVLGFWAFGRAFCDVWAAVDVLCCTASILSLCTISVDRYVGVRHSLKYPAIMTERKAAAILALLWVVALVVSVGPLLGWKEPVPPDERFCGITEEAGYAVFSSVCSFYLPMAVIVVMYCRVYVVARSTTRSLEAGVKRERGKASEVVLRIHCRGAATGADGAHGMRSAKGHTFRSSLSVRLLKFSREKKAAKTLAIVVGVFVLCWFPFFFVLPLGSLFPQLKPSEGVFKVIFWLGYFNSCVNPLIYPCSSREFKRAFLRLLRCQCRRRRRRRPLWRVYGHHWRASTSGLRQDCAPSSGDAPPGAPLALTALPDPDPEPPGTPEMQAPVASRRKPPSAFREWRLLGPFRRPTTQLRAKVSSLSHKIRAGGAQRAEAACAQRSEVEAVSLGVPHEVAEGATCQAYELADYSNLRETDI
UniProt P35368, whole entry: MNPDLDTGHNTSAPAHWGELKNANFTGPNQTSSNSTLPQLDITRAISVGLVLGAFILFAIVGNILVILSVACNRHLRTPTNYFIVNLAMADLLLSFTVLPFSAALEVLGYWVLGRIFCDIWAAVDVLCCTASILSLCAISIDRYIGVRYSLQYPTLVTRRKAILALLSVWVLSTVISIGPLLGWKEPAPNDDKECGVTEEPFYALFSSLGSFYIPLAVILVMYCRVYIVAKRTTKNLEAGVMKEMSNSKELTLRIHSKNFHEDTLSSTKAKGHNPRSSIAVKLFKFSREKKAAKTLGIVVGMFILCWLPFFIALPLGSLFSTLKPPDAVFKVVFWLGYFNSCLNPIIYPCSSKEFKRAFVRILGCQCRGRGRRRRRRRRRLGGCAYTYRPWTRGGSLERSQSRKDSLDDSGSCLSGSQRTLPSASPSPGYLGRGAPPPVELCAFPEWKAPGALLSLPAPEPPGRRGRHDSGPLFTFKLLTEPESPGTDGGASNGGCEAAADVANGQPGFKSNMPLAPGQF

Legend:
[1] = system: α1-ARs (α1A, α1B, and α1D); assay: Dual-luciferase CRE reporter HTS assay, agonist mode, summary over subtypes; format: cell-based, human
Procedure: (§1) HEK293 cells were plated at a density of 10^5 […] in 96-well plates in 100 μL of DMEM basic medium containing 10% fetal bovine serum, 100 U/mL penicillin, and 0.1 mg/mL streptomycin. After overnight incubation, human ADRA1-expression vectors, namely, ADRA1A, ADRA1B, and ADRA1D, were co-transfected with reporter vectors (CRE, SRE, AP1, NFAT, and NF-кB) and pGL4.74 [hRluc/TK] (included as a control for transfection efficiency) using Lipofectamine 2000 transfection reagent (Invitrogen Life Technologies, Carlsbad, CA, USA). The medium was removed after 4 h and replaced with high-glucose DMEM for 18 h. Cells were then treated with agonists (at concentrations of 0.01–20 μM) and incubated for 8 h.
(§2) Firefly and Renilla luciferase activities, which are indicated as RLUs, were determined using Dual-Glo luciferase assay kits (Promega) according to the manufacturer’s instructions. RLUs were measured using a luminometer (GloMaxTM 96-Microplate Luminometer, Promega) and are reported as the mean ± SEM of three individual experiments. For agonists, fold of induction = RLUinduced/RLUuninduced. For antagonists, % of control = 100 × RLU (agonist + antagonist)/RLU(agonist alone). […] The pKB of the antagonist was calculated by plotting log (dose ratio–1) against the antagonist dose (μM) and subjecting the data to Schild regression, where the intercept of the x-axis represents the pKB.

[2] = biological target: T1, human α1D-adrenoceptor (ADRA1D) expressed in HEK293 cells (Homo sapiens, UniProt P25100); assay: Dual-luciferase CRE reporter HTS assay, inhibition of PE-induced CRE activation (RIP); format: cell-based; conditions: relative inhibitory potency = (RLU PE alone − RLU PE+antagonist)/RLU PE alone
T1 construct: eGFP; host or cells: HEK293 (transient, Lipofectamine 2000)
Procedure: (§3) Furthermore, the relative inhibitory potency (RIP) could be used to improve the readability of the results. Which was determined relative to that of PE-induced group ([…]), and calculated using the following formula [15]: RIP = (RLUPE alone − RLUPE+antagonist)/RLUPE alone(1)
as §1
as §2, with “alone). All RLUs were normalized against firefly RLUs/Renilla RLUs.” for “alone).”

[3] = biological target: T2, human α1A-adrenoceptor (ADRA1A) expressed in HEK293 cells (Homo sapiens, UniProt P35348); assay: as above; format: cell-based; conditions: relative inhibitory potency = (RLU PE alone − RLU PE+antagonist)/RLU PE alone
T2 construct: eGFP; host or cells: HEK293 (transient, Lipofectamine 2000)
T2 sequence (P35348 1-466): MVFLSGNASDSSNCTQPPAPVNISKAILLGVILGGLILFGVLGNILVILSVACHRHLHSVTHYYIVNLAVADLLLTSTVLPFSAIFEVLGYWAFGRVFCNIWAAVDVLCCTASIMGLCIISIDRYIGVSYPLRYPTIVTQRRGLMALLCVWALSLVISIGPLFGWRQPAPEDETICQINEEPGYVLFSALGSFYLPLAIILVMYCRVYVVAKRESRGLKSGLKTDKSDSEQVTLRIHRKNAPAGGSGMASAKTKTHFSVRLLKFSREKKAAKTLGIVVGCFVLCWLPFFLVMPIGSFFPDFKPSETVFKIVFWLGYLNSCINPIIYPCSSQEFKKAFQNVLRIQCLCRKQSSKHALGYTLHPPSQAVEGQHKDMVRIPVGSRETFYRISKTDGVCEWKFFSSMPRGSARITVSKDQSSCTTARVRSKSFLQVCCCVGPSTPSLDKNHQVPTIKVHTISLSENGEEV
Procedure: as §3, §1
as §2, with “alone). All RLUs were normalized against firefly RLUs/Renilla RLUs.” for “alone).”

[4] = biological target: T3, human α1B-adrenoceptor (ADRA1B) expressed in HEK293 cells (Homo sapiens, UniProt P35368); assay: as above; format: cell-based; conditions: relative inhibitory potency = (RLU PE alone − RLU PE+antagonist)/RLU PE alone
T3 construct: eGFP; host or cells: HEK293 (transient, Lipofectamine 2000)
Procedure: as §3, §1
as §2, with “alone). All RLUs were normalized against firefly RLUs/Renilla RLUs.” for “alone).”

α1-ARs (α1A, α1B, α1D) = conditions: α1-AR subtype selectivity, cited from earlier work

Row | SMILES | subtype selectivity in the HTS assay [1] | RIP Values (Mean ± S.E.M, n = 4) α1D [2] | RIP Values (Mean ± S.E.M, n = 4) α1A [3] | RIP Values (Mean ± S.E.M, n = 4) α1B [4] | Reported Selectivity (α1-ARs (α1A, α1B, α1D)) | Reported Selectivity (Table S1) (α1-ARs (α1A, α1B, α1D); ref 1 (supplement))
1 | Cc1ccc(S(=O)(=O)OCCc2ccc(COc3ccc4c(c3)OCO4)cc2)cc1 [CHK3] | did not display significant subtype selectivity |  |  |  |  | 
2 | COc1cc2nc(N3CCN(C(=O)c4ccco4)CC3)nc(N)c2cc1OC [Prazosin, prazosin] |  | 0.39 ± 0.11 | 0.91 ± 0.02 | 0.92 ± 0.01 | Nonselective [16] | Nonselective
